Consider one compound from article PMC13534584, “ATP13A4 gates extracellular polyamine levels to control excitatory synaptogenesis” (Nature Communications, 2026).

The target in this test is T1, hATP13A4 (Homo sapiens, UniProt Q4VNC1).
T1 construct: gene ATP13A4; solubilised in DDM
T1 sequence (Q4VNC1 1-1196): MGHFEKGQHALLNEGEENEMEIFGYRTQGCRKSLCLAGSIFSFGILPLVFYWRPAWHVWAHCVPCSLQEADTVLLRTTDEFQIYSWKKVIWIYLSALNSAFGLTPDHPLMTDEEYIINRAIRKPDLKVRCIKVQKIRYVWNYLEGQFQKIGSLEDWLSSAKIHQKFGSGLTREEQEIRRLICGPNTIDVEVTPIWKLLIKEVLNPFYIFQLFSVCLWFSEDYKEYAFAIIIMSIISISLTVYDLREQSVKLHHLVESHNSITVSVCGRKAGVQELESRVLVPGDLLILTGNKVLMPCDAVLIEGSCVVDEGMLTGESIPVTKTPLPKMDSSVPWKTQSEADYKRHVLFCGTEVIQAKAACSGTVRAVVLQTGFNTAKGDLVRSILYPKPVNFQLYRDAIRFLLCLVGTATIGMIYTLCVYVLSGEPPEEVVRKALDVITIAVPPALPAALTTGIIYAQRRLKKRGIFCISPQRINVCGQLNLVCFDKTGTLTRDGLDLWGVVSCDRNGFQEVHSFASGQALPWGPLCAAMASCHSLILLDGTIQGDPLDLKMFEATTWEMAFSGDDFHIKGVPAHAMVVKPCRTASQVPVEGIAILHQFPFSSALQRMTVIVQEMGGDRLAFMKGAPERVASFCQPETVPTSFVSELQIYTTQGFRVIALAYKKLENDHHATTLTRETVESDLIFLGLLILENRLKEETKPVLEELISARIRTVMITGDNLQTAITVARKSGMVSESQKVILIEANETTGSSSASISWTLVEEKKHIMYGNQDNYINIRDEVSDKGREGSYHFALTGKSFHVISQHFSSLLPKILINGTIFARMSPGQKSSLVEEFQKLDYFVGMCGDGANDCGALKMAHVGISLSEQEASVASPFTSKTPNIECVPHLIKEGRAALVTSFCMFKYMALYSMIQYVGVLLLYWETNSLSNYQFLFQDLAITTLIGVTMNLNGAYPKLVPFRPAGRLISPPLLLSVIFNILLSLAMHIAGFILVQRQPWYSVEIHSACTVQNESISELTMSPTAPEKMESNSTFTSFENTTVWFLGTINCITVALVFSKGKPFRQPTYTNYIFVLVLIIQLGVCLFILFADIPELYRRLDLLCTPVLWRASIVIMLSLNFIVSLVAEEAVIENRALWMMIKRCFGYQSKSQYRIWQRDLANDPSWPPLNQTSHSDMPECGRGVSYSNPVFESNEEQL
Description: ADP-Glo Max ATPase assay, dose-response. As to conditions: 5 mM ATP, 11 mM MgCl2, 100 mM KCl, MOPS-KOH pH 7, 37 °C, 0.001% DDM. It counts as biochemical. (In ADP-Glo the light output rises with the ADP produced.)

For the compound `NCCCCN` [PUT, putrescine], the ATPase stimulation entry is “Putrescine, spermidine, spermine, cadaverine, and acetylated polyamine derivatives each stimulated ATPase activity”.
